Numbers after ± are expanded uncertainties.
Test: excess molar enthalpy (molar enthalpy of mixing); xn = mol fraction of the nth substance listed
Conditions: 101.3 kPa, Liquid, Flow calorimetry

SMILES: CCCCOCCCC [dibutyl ether] + CCCCCCC
- excess molar enthalpy (298.15 K, x1 = 0.0497): 0.00636 ± 0.000311 kcal/mol
- excess molar enthalpy (298.15 K, x1 = 0.1002): 0.0121 ± 0.000382 kcal/mol
- excess molar enthalpy (298.15 K, x1 = 0.1498): 0.0165 ± 0.000454 kcal/mol
- excess molar enthalpy (298.15 K, x1 = 0.2): 0.0203 ± 0.000526 kcal/mol
- excess molar enthalpy (298.15 K, x1 = 0.2501): 0.0234 ± 0.000574 kcal/mol
- excess molar enthalpy (298.15 K, x1 = 0.3): 0.0258 ± 0.000621 kcal/mol
- excess molar enthalpy (298.15 K, x1 = 0.3506): 0.0277 ± 0.000669 kcal/mol
- excess molar enthalpy (298.15 K, x1 = 0.4): 0.0288 ± 0.000693 kcal/mol
- excess molar enthalpy (298.15 K, x1 = 0.4501): 0.0294 ± 0.000693 kcal/mol
- excess molar enthalpy (298.15 K, x1 = 0.5): 0.0293 ± 0.000693 kcal/mol
- excess molar enthalpy (298.15 K, x1 = 0.5496): 0.029 ± 0.000693 kcal/mol
- excess molar enthalpy (298.15 K, x1 = 0.5998): 0.0279 ± 0.000669 kcal/mol
- excess molar enthalpy (298.15 K, x1 = 0.6498): 0.0262 ± 0.000645 kcal/mol
- excess molar enthalpy (298.15 K, x1 = 0.6994): 0.024 ± 0.000598 kcal/mol
- excess molar enthalpy (298.15 K, x1 = 0.7498): 0.0212 ± 0.00055 kcal/mol
- excess molar enthalpy (298.15 K, x1 = 0.7998): 0.0179 ± 0.000478 kcal/mol
- excess molar enthalpy (298.15 K, x1 = 0.8505): 0.0138 ± 0.000406 kcal/mol
- excess molar enthalpy (298.15 K, x1 = 0.8996): 0.00951 ± 0.000335 kcal/mol
- excess molar enthalpy (298.15 K, x1 = 0.9494): 0.00454 ± 0.000263 kcal/mol
- excess molar enthalpy (313.15 K, x1 = 0.0496): 0.00652 ± 0.000311 kcal/mol
- excess molar enthalpy (313.15 K, x1 = 0.1001): 0.0122 ± 0.000382 kcal/mol
- excess molar enthalpy (313.15 K, x1 = 0.1496): 0.0163 ± 0.000454 kcal/mol
- excess molar enthalpy (313.15 K, x1 = 0.1998): 0.0201 ± 0.000526 kcal/mol
- excess molar enthalpy (313.15 K, x1 = 0.2499): 0.0233 ± 0.000574 kcal/mol
- excess molar enthalpy (313.15 K, x1 = 0.2998): 0.0257 ± 0.000621 kcal/mol
- excess molar enthalpy (313.15 K, x1 = 0.3503): 0.0275 ± 0.000669 kcal/mol
- excess molar enthalpy (313.15 K, x1 = 0.3998): 0.0286 ± 0.000693 kcal/mol
- excess molar enthalpy (313.15 K, x1 = 0.4499): 0.0292 ± 0.000693 kcal/mol
- excess molar enthalpy (313.15 K, x1 = 0.4998): 0.0291 ± 0.000693 kcal/mol
- excess molar enthalpy (313.15 K, x1 = 0.5494): 0.0285 ± 0.000669 kcal/mol
- excess molar enthalpy (313.15 K, x1 = 0.5997): 0.0275 ± 0.000669 kcal/mol
- excess molar enthalpy (313.15 K, x1 = 0.6496): 0.0258 ± 0.000621 kcal/mol
- excess molar enthalpy (313.15 K, x1 = 0.6993): 0.0236 ± 0.000598 kcal/mol
- excess molar enthalpy (313.15 K, x1 = 0.7496): 0.0208 ± 0.000526 kcal/mol
- excess molar enthalpy (313.15 K, x1 = 0.7996): 0.0175 ± 0.000478 kcal/mol
- excess molar enthalpy (313.15 K, x1 = 0.8503): 0.0137 ± 0.000406 kcal/mol
- excess molar enthalpy (313.15 K, x1 = 0.8995): 0.00954 ± 0.000335 kcal/mol
- excess molar enthalpy (313.15 K, x1 = 0.9494): 0.00492 ± 0.000263 kcal/mol

SMILES: CCCCOCCCC [dibutyl ether] + CCCCO
- excess molar enthalpy (298.15 K, x1 = 0.0501): 0.0285 ± 0.00112 kcal/mol
- excess molar enthalpy (298.15 K, x1 = 0.1002): 0.0564 ± 0.00153 kcal/mol
- excess molar enthalpy (298.15 K, x1 = 0.1497): 0.0823 ± 0.00198 kcal/mol
- excess molar enthalpy (298.15 K, x1 = 0.2003): 0.107 ± 0.00239 kcal/mol
- excess molar enthalpy (298.15 K, x1 = 0.2503): 0.129 ± 0.00287 kcal/mol
- excess molar enthalpy (298.15 K, x1 = 0.3004): 0.149 ± 0.00335 kcal/mol
- excess molar enthalpy (298.15 K, x1 = 0.3498): 0.167 ± 0.00359 kcal/mol
- excess molar enthalpy (298.15 K, x1 = 0.4006): 0.182 ± 0.00406 kcal/mol
- excess molar enthalpy (298.15 K, x1 = 0.4507): 0.195 ± 0.0043 kcal/mol
- excess molar enthalpy (298.15 K, x1 = 0.4997): 0.204 ± 0.0043 kcal/mol
- excess molar enthalpy (298.15 K, x1 = 0.5506): 0.21 ± 0.00454 kcal/mol
- excess molar enthalpy (298.15 K, x1 = 0.5998): 0.213 ± 0.00454 kcal/mol
- excess molar enthalpy (298.15 K, x1 = 0.6505): 0.213 ± 0.00454 kcal/mol
- excess molar enthalpy (298.15 K, x1 = 0.7): 0.209 ± 0.00454 kcal/mol
- excess molar enthalpy (298.15 K, x1 = 0.7509): 0.199 ± 0.0043 kcal/mol
- excess molar enthalpy (298.15 K, x1 = 0.8): 0.185 ± 0.00406 kcal/mol
- excess molar enthalpy (298.15 K, x1 = 0.8501): 0.162 ± 0.00359 kcal/mol
- excess molar enthalpy (298.15 K, x1 = 0.8994): 0.13 ± 0.00311 kcal/mol
- excess molar enthalpy (298.15 K, x1 = 0.9493): 0.0789 ± 0.00239 kcal/mol
- excess molar enthalpy (313.15 K, x1 = 0.0501): 0.034 ± 0.00131 kcal/mol
- excess molar enthalpy (313.15 K, x1 = 0.1003): 0.0667 ± 0.00179 kcal/mol
- excess molar enthalpy (313.15 K, x1 = 0.1498): 0.0972 ± 0.00232 kcal/mol
- excess molar enthalpy (313.15 K, x1 = 0.2004): 0.126 ± 0.00287 kcal/mol
- excess molar enthalpy (313.15 K, x1 = 0.2502): 0.152 ± 0.00335 kcal/mol
- excess molar enthalpy (313.15 K, x1 = 0.3004): 0.175 ± 0.00382 kcal/mol
- excess molar enthalpy (313.15 K, x1 = 0.3497): 0.196 ± 0.0043 kcal/mol
- excess molar enthalpy (313.15 K, x1 = 0.4004): 0.214 ± 0.00454 kcal/mol
- excess molar enthalpy (313.15 K, x1 = 0.4505): 0.228 ± 0.00502 kcal/mol
- excess molar enthalpy (313.15 K, x1 = 0.4995): 0.238 ± 0.00502 kcal/mol
- excess molar enthalpy (313.15 K, x1 = 0.5503): 0.246 ± 0.00526 kcal/mol
- excess molar enthalpy (313.15 K, x1 = 0.5994): 0.25 ± 0.00526 kcal/mol
- excess molar enthalpy (313.15 K, x1 = 0.6502): 0.249 ± 0.00526 kcal/mol
- excess molar enthalpy (313.15 K, x1 = 0.6997): 0.243 ± 0.00526 kcal/mol
- excess molar enthalpy (313.15 K, x1 = 0.7506): 0.231 ± 0.00502 kcal/mol
- excess molar enthalpy (313.15 K, x1 = 0.7998): 0.214 ± 0.00454 kcal/mol
- excess molar enthalpy (313.15 K, x1 = 0.8499): 0.186 ± 0.00406 kcal/mol
- excess molar enthalpy (313.15 K, x1 = 0.8993): 0.147 ± 0.00359 kcal/mol
- excess molar enthalpy (313.15 K, x1 = 0.9494): 0.087 ± 0.00263 kcal/mol
